The text below walks through data of ChEMBL document CHEMBL1138679, “Three-dimensional quantitative structure-activity relationship analysis of a set of Plasmodium falciparum dihydrofolate reductase inhibitors using a pharmacophore generation approach” (J Med Chem, 2004).

By UniProt entry, the sequences of proteins in these tests, tags left out. Where a name states a change or a piece, a line headed by the entry shows the natural chain unless it says otherwise.
UniProt P13922: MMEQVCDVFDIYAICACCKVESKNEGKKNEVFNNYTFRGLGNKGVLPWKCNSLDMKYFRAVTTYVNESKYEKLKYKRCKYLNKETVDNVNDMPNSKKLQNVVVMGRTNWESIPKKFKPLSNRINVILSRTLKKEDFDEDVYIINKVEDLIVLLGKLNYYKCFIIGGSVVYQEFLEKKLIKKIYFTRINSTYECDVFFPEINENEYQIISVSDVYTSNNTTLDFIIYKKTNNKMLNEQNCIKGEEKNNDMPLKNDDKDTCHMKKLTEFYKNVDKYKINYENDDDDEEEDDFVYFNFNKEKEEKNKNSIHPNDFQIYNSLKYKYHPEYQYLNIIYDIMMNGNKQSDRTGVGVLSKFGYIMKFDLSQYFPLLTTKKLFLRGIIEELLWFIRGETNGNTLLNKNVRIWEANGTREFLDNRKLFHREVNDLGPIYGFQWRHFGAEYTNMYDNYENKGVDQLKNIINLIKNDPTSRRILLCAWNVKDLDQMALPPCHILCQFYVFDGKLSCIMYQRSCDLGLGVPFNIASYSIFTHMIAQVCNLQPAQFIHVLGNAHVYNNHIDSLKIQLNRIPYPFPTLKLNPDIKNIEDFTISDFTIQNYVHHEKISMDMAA

By Ki is commonly meant a measure of affinity in units of concentration, obtained from inhibition or displacement. A higher Ki goes with lower affinity.

In the assay the target is Bifunctional dihydrofolate reductase-thymidylate synthase (Plasmodium falciparum K1, UniProt P13922). In words: Inhibition constant against Plasmodium falciparum dihydrofolate reductase.

`CC1(C)N=C(N)N=C(N)N1c1cccc(Cl)c1` displayed an inhibitory constant (Ki) of 90 nM. This lies in the double-digit nanomolar range.
